{
  "source": "patent US4053635A",
  "about": "“Substituted amides of 3-methyl-4-phenyl-3-butenoic acid, with a high hypolipemizing activity” (Istituto Biochimico Italiano di Loredana Lorenzini S.a.s., priority 1974, dated 1977)",
  "assay": "in vivo",
  "settings": "po, per os, rat, read-out: LD 50 per os in the rat",
  "data": [
    {"smiles": "CCN(CC)C(=O)C/C(C)=C/c1ccccc1", "note": "[IIId, Diethylamide of 3-methyl-4-phenyl-3-butenoic acid]", "values": [
      {"measurement": "LD50", "value": 2300, "unit": "mg/kg"}
    ]},
    {"smiles": "C/C(=C\\c1ccccc1)CC(=O)NCCO", "note": "[IIIa, Monoethanolamide of 3-methyl-4-phenyl-3-butenoic acid]", "values": [
      {"measurement": "LD50", "value": 1380, "unit": "mg/kg"}
    ]}
  ]
}
